# AlphaSeq binding of Ab-14 heavy chain variants to a spike HR2 peptide

The target is the same throughout: PDVDLGDISGINAS, from the HR2 region of SARS-CoV-2 spike.

Parent: Ab-14, a human scFv built as VH, three GGGGS repeats, VL. Only the CDRs of the heavy chain vary.
VH: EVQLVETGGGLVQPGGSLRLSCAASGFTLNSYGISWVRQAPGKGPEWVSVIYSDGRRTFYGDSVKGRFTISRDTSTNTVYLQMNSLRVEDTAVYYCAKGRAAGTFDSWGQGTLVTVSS
VL: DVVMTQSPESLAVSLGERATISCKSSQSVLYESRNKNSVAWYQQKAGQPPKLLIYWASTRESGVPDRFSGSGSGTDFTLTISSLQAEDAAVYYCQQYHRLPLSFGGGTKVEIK

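Phage display of a naive human antibody library on the peptide gave the parent. This is the validation round: designs drawn from the data on random variants, tested in the same kind of assay. Group labels follow the data file (Ctrl: baseline library sampled from a position-specific scoring matrix, with some repeated check sequences; Rand: our label for a block that the file lists under HC and that is probably the random mutants of the ten best first-round binders; En: ensemble of fine-tuned language models; GP: Gaussian process model; GPLM: also part of the Gaussian process libraries; HC: hill climbing; Gen: genetic algorithm; Gibbs: Gibbs sampling; a sequence that several methods proposed may carry one label only). AlphaSeq pools MATa yeast showing the antibodies with MATalpha yeast showing the peptide. Pairs that bind mate more often; barcode pairs of the diploids are counted by sequencing. Scores were corrected for input abundance and mapped to Kd with protein pairs of known affinity run in the same pool. Mating was done six times.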

The parent's heavy chain CDRs are GFTLNSYGIS, VIYSDGRRTFYGDSVK, GRAAGTFDS; each variant's own CDRs replace them letter for letter. Affinities are written as log10 Kd with Kd in nM; a lower number is a better binder. The mean shown is taken over the replicates in which the pair was detected. Where no diploid with the target was found in any replicate, the entry reads "nd": below detection, most likely a poor binder, though not proof of it. The authors averaged sequences with at least three values out of six and counted those with two or fewer as poor binders.

CDR-H1	CDR-H2	CDR-H3	group	log10 Kd (nM), mean	seen in	empty controls
GFDLNEYGIS	VIYADGMRTAYADKVK	GNVAGTFDT	En_Gen	-0.36	5/6	0/18
GFSLNEYGIS	VIYSDGRRTFYADSVK	GRWAGTFDS	GP_Gibbs	-0.34	6/6	0/18
GFTLNDYGIS	VIYSDGRRTMYTDSVK	GRAAGTFDS	GP_HC	1.06	6/6	0/18
GFELNSYGIS	VIYSDGRRTFYDDSVK	GALAGTFDS	GP_HC	0.54	6/6	0/18
DFTLNSYGSS	VIYSDGRRTFYGDSVK	GRAAGTFDS	Ctrl	nd	0/6	0/18
GFRLNSYGIS	VIYSDGRRTFYDDSVK	GQEAGTFDS	GP_HC	0.80	6/6	0/18
GFSLDEYGIS	VIYADGIRQHYSDQVK	GVKFGNVIL	En_Gibbs	nd	0/6	0/18
GFTLNIYGIS	VIYSDGRRTFYGDSVK	GRAAVTFDQ	Rand	nd	0/6	0/18
GFDLNEYGIS	VIYADGRRTFYSDSVK	GQLAGTFDK	En_HC	-0.40	6/6	1/18
GFDLNEYGIS	VIYADGRRTFYADSVK	GNIAGTFFS	En_HC	0.40	6/6	0/18
GFTLNEYGIS	VVYSDGRRTFWTDSVK	GRIAGTEDS	Rand	nd	0/6	0/18
GFNLNEYGIS	VIYADGKRTFYADSVK	GEVAGTFDV	En_HC	-0.52	6/6	0/18
GFDLDEYGIS	VIYADGKRTVYADSVK	GNNAGTFDV	En_Gen	-0.06	6/6	0/18
GFDINEYGIS	VIYADGRRTFYADSVK	GNTAGTFDV	En_HC	0.85	4/6	0/18
GFDLNEYGIS	VIYADGRRTAYADSVK	GENAGTFDQ	En_Gen	-0.55	6/6	1/18
GFRLNSYGIS	VIYADGRRTFYGDSVK	GRAAGTNKS	Rand	nd	0/6	0/18
GFSLNWYGIS	VIYSDGRRTAYGDSVK	GRAAGTFDS	GP_Gibbs	1.96	6/6	1/18
GFTLNDYGIS	VIYSDGIRTFYGDSVK	GRAAGTFTS	GPLM_HC	nd	0/6	0/18
GDNLDEYGIS	VIYADGHRTAYSNPVK	GEYGVTVGD	En_Gibbs	nd	0/6	0/18
GNDLNSYGIS	VIYSDGRRTFYGDSVK	GRAATWFNS	Rand	nd	0/6	0/18
GFSLNEYGIS	VIYSDGRRTFYGDQVK	GKAAGTFDS	GP_Gen	-0.28	6/6	1/18
GFDLQEYGIS	VIYADGLREAYSDKVK	GQLMGYFSF	En_Gibbs	nd	0/6	0/18
GFDLNSYGIS	VIYSDGRRTFYGDSVK	GQAAGTWDG	Ctrl	nd	0/6	1/18
GFTLNSYGIS	VIYADGRRTFYGDSVK	GRAAGTFWK	GP_HC	nd	0/6	0/18
RFTLDSYGIS	VIYSDGFRTSYGDSVK	GRSAGTFDS	Ctrl	1.82	1/6	0/18
GFSLNDYGIS	VIYSDGRRTFYGDSVK	GRTAGTFDM	GPLM_Gen	-0.16	6/6	0/18
GFDLDEYGIS	VIYADGKRTAYADNVK	GETAGTFDV	En_Gen	1.15	5/6	1/18
GFTLNSYGIS	VIYSDGRRTFYDDSVK	GQLAFTFDS	Rand	nd	0/6	0/18

Continued, with the values leading:

log10 Kd (nM), mean	seen in	empty controls	CDR-H1	CDR-H2	CDR-H3	group
0.47	6/6	0/18	GFWLNEYGIS	VIYSDGRRTFYSDSVK	GRTAGTFDS	GPLM_Gen
0.94	6/6	1/18	GFDLNSYGIS	VIYSDGRRTFYVDDVK	GQAAGTFDF	GP_Gibbs
nd	0/6	1/18	GGDLEEMGVS	VIYADGKRKAYKNKAK	GQTAGSFDV	En_Gibbs
1.89	1/6	0/18	RFTLNSYGIS	VIYSDGGRTAYGDSVK	GRAAGTFDS	Ctrl
-0.26	6/6	0/18	GFDLNEYGIS	VIYADGRRTAYADDVK	GNEAGTFDV	En_Gen
0.45	6/6	1/18	GFTLNEYGIS	VIYSDGRRTFYGDSVK	GRAAGTFEQ	GPLM_HC
0.59	6/6	0/18	GFDLNEYGIS	VIYADGMRTAYADDVK	GNVAGTFDT	En_Gen
nd	0/6	0/18	KFTVNSYGIS	VIYSDGRRTFYGDSVK	GRAAGTDDS	Ctrl
nd	0/6	0/18	GFCLPEYGIS	VIYSDGRRTSYGDSVA	GRAAGTFDS	Ctrl
2.32	1/6	1/18	GFTLEDYGIS	VIYSDGRRTFYGDSVK	GRAMGTFDS	Ctrl
0.86	12/12	0/36	GFNLNSYGIS	VIYSDGRRTFYGDSVK	GDAAGTFDS	Ctrl+GPLM_Gibbs
nd	0/6	0/18	GFVLNDYGIS	VIYSDGRRTMYGDSVK	GRAAGTFDS	GP_HC
0.15	6/6	0/18	GFDLNEYGIS	VIYADGRRTFYADSVK	GNVAGTFSQ	En_HC
nd	0/6	0/18	GDSLNEYGIS	VIYADGVRAAYADPVK	GENDGLFDQ	En_Gibbs
-0.40	6/6	0/18	GFDLDEYGIS	VIYADGKRTAYADDVK	GENAGTFDL	En_Gen
nd	0/6	0/18	GQNLDEYGIS	VIYADGMRKWYADDVK	GIMSAGVIT	En_Gibbs
nd	0/6	0/18	GFDLDEYGIS	VIYADGMRTAYTDSVK	GNQAGTFDI	En_Gen
-0.10	6/6	0/18	GFDLNEYGIS	VIYADGMRTAYVDSVK	GETAGTFDI	En_Gen
0.17	6/6	1/18	GFTLNEYGIS	VIYSDGRRTFYTDSVK	GHAAGTFDS	GP_HC
nd	0/6	0/18	GFTLNSYGNS	VIYSDGRRTFYKGSVV	GRAAGTFDS	Ctrl
1.81	6/6	1/18	GFDVDEFGIS	VIYADGHRTSYAADVK	GSQVGNGLV	En_Gibbs
nd	0/6	0/18	GFTLMSYGIS	VIYCDGRRTFYDDSVK	GQLAGTFDS	Rand
1.30	6/6	1/18	GFELNSYGIS	VIYSDGERTFYGDSVK	GRAAGTFDS	Ctrl
-0.66	6/6	1/18	GFNLNEYGIS	VIYADGRRTFYADKVK	GNAAGTFDV	En_HC
nd	0/6	1/18	GFNLNDYGIS	VIYADGHRASMVDNVK	GHLAGTFFM	En_Gibbs
nd	0/6	0/18	GFQLNSYGIS	VIYSDGRRTFYGDNVK	GRAAGTFDS	GP_HC
3.17	1/6	0/18	GQNLDEYGIS	VIYADGQRTAYDDPVK	GEQGGTVMV	En_Gibbs
0.04	6/6	0/18	GFQLNEYGIS	VIYSDGRRTFYMDSVK	GRTAGTFDS	GPLM_HC

Excerpt, the final 9 entries:

CDR-H1,CDR-H2,CDR-H3,group,"log10 Kd (nM), mean",seen in,empty controls
GFTLNSYGNS,VIYSDGRRTFYKGSVV,GRAAGTFDS,Ctrl,nd,0/6,0/18
GFDVDEFGIS,VIYADGHRTSYAADVK,GSQVGNGLV,En_Gibbs,1.81,6/6,1/18
GFTLMSYGIS,VIYCDGRRTFYDDSVK,GQLAGTFDS,Rand,nd,0/6,0/18
GFELNSYGIS,VIYSDGERTFYGDSVK,GRAAGTFDS,Ctrl,1.30,6/6,1/18
GFNLNEYGIS,VIYADGRRTFYADKVK,GNAAGTFDV,En_HC,-0.66,6/6,1/18
GFNLNDYGIS,VIYADGHRASMVDNVK,GHLAGTFFM,En_Gibbs,nd,0/6,1/18
GFQLNSYGIS,VIYSDGRRTFYGDNVK,GRAAGTFDS,GP_HC,nd,0/6,0/18
GQNLDEYGIS,VIYADGQRTAYDDPVK,GEQGGTVMV,En_Gibbs,3.17,1/6,0/18
GFQLNEYGIS,VIYSDGRRTFYMDSVK,GRTAGTFDS,GPLM_HC,0.04,6/6,0/18

A sequence that the file lists under several names has all its replicates pooled. Values of this round are not directly comparable with the first-round values of the same sequences. Background: pairings of all heavy chain designs with three empty control strains gave a value in 1% of cases (median 2.08, 5th percentile 0.84). Values in that range, when seen in few replicates, are hard to tell from nonspecific mating. For each scFv, signals with the empty controls are counted beside the result.

From the AlphaSeq antibody data of Li et al. 2023 (doi:10.1038/s41467-023-39022-2), copy in the FLAb collection.